Test results from paper PMC11203531, “Engineered CD147-Deficient THP-1 Impairs Monocytic Myeloid-Derived Suppressor Cell Differentiation but Maintains Antibody-Dependent Cellular Phagocytosis Function for Jurkat T-ALL Cells with Humanized Anti-CD147 Antibody” (International Journal of Molecular Sciences, 2024).

The chains behind the UniProt entries cited, without tags or fusion partners. A line that says so, or that is headed by a name, gives the form on record, which may keep a tag or linker.
UniProt P35613, other isoform, or with tags, fused parts or gaps: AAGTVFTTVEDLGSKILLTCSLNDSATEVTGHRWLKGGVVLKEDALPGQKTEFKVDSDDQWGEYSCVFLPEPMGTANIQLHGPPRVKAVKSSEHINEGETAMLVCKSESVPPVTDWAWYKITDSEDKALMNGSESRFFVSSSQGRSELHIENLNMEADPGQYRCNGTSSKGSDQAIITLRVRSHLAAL

Target: T1, Human CD147, tagged with His (Sino Biological) (Homo sapiens, UniProt P35613-2)
T1 construct: CD147 (EMMPRIN, basigin), human; source: bought: Sino Biological
Assay: BLI; Octet K2; His-tagged human CD147 (50 μg/mL) immobilised on anti-penta HIS (HIS1K) biosensors; antibody at various concentrations in solution; 0.1% BSA, 0.02% Tween-20 in PBS, 30 °C; 1:1 fitting, KD = kd/ka
Details: both partners purified

- Kd: 2.05 nM
B1: HuM6-1B9, fully humanized anti-CD147 antibody (IgG1/κ) (antibody, V domains shown)
VH: EVQLVESGGGLVQPGGSLRLSCAASGFTFSSYAMSWVRQAPGKGLEWVATISSGGTYTYYPDSVKGRFTISRDNSKNTLYLQMNSLRAEDTAVYYCARFRNGAYWGQGTLVTVSS
VL: DIQMTQSPSSLSASVGDRVTITCSVSSSISSSNLHWYQQKPGKAPKPWIYGTSNLASGVPSRFSGSGSGTDYTLTISSLQPEDFATYYCQQWSNYPLTFGQGTKVEIK
